## Antibody variant affinities, Ab-14 light chain, assay B

From the AlphaSeq antibody data of Li et al. 2023 (doi:10.1038/s41467-023-39022-2), copy in the FLAb collection.

The target is the same throughout: PDVDLGDISGINAS, from the HR2 region of SARS-CoV-2 spike.

Each scFv is VH, the linker GGGGSGGGGSGGGGS, VL, as in the parent Ab-14, and differs from it in the CDRs of the light chain only.
VH: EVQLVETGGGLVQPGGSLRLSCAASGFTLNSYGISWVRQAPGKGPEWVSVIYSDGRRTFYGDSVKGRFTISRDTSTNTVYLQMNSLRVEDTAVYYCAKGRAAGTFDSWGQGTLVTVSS
VL: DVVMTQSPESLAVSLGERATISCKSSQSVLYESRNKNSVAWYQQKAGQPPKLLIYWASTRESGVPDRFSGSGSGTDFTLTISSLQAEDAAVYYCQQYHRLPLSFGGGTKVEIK

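Phage display of a naive human antibody library on the peptide gave the parent. The variants were designed computationally from a first round of random CDR variants and then made and measured. Group labels follow the data file (En: ensemble of fine-tuned language models; GP: Gaussian process model; HC: hill climbing; Gen: genetic algorithm; Gibbs: Gibbs sampling; a sequence that several methods proposed may carry one label only). The scFvs were displayed on barcoded MATa yeast, the peptide on MATalpha yeast. The frequency of each diploid, read from paired DNA barcodes, reflects how well the two displayed proteins bind. Each replicate has its own calibration line, from reference interactions of the BCL2 family. Each pool was mated in six replicate cultures.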

Variants are written as CDR1, CDR2 and CDR3 of the light chain (limits as in the source). Parent: KSSQSVLYESRNKNSVA, WASTRES, QQYHRLPLS.
This list holds designs with more than six substitutions.
Kd is apparent (estimated from mating counts) and averaged on the log scale over replicates with a signal. Smaller is tighter.
"no signal" means that the variant was in the library but no mating with the target was seen in any replicate; the authors take this as a sign of poor binding, and no number exists.
Order: sorted from the lowest average up, undetected variants last.

Variant QLYAVQDMTSKNSNNVA, EQSTRNN, QQYHRLPLS [En_HC] showed 700 pM (6 of 6 replicates; controls 0 of 18).
Variant KLQGSELGESRNKNSVA, HADTRES, QQYHRLPLS [GP_Gibbs] showed 760 pM (6 of 6 replicates; controls 0 of 18).
Variant SVRHPFQGENGMRGSVA, NATIRDQ, QQYFRLPLF [En_Gibbs] showed 820 pM (6 of 6 replicates; controls 2 of 18).
Variant KLSQSGLYEMRNKMSVA, QASQRLS, QQYHRLPLS [GP_Gibbs] showed 1.1 nM (6 of 6 replicates; controls 0 of 18).
Variant SMGWAHENGDNKMNSIA, DETHLAY, QQYSRLPIT [En_Gibbs] showed 1.1 nM (6 of 6 replicates; controls 1 of 18).
Variant QIMHFGLSANLNSKNVA, AKNLRVD, QQYNRLPLS [En_Gibbs] showed 1.2 nM (6 of 6 replicates; controls 0 of 18).
Variant KLDQLVDEKSRNKNAVA, EASTRES, QQYHRLPLS [GP_Gibbs] showed 1.2 nM (6 of 6 replicates; controls 1 of 18).
Variant NLGQKMALITEQRQQIA, DSTVRED, QQYSRLPLT [En_Gibbs] showed 1.2 nM (6 of 6 replicates; controls 2 of 18).
Variant KMSQSVLYEDRNSNAVA, QASQRMS, QQYHRLPLS [GP_Gibbs] showed 1.3 nM (6 of 6 replicates; controls 3 of 18).
Variant KLSMITGHMQVEKNNVA, EMETREN, QQYNRLPLS [En_Gen] showed 1.4 nM (6 of 6 replicates; controls 1 of 18).
Variant IISQSMLYQSATHNSIA, QTSTREE, QQYHHLPLS [En_HC] showed 1.5 nM (6 of 6 replicates; controls 0 of 18).
Variant SITQLVGYGQRNKNSVA, QMETREN, QQYDRLPLT [En_HC] showed 1.5 nM (6 of 6 replicates; controls 1 of 18).
Variant SISGFMKSLAAHHNSVA, DMTNRED, QQYDRLPLS [En_Gen] showed 1.6 nM (6 of 6 replicates; controls 1 of 18).
Variant TIGPMLMTEMHNKNNVA, GMQTRER, QQYHRLPLS [En_HC] showed 1.7 nM (6 of 6 replicates; controls 1 of 18).
Variant KLSMSVMMESRNKNSVA, SANTRME, QQYHRLPLS [GP_Gibbs] showed 1.9 nM (6 of 6 replicates; controls 3 of 18).
Variant SLMDNIWVEDTYRKAIA, DINVRAK, QQYHRLPLS [En_Gibbs] showed 2.0 nM (6 of 6 replicates; controls 0 of 18).
Variant KLSPSVQYEDRNCNAVA, QASQRES, QQYHRLPLS [GP_Gibbs] showed 2.1 nM (6 of 6 replicates; controls 1 of 18).
Variant KIELSNSWHLRGTSAVA, QASTRAA, QQYQRLPLL [En_Gibbs] showed 2.1 nM (6 of 6 replicates; controls 3 of 18).
Variant KSSGSVLYEDKNVNSVA, DASQRCS, QQYHRLPLS [GP_Gibbs] showed 2.4 nM (6 of 6 replicates; controls 1 of 18).
Variant TISQVMNTLTRHGNNVA, DLQNRES, QQYFRLPLS [En_Gen] showed 2.5 nM (6 of 6 replicates; controls 0 of 18).
Variant KLKELFNMWARAQGNVA, DATERCT, QQYSRLPIC [En_Gibbs] showed 2.5 nM (6 of 6 replicates; controls 1 of 18).
Variant KGQQQVQYESRNWNSVA, NASYRES, QQYHRLPLS [GP_Gibbs] showed 2.5 nM (6 of 6 replicates; controls 1 of 18).
Variant KVEQSNPYESRNKNSVA, NASQRLS, QQYHRLPLS [GP_Gibbs] showed 3.0 nM (6 of 6 replicates; controls 2 of 18).
Variant NISESMYYQSRNKNNIA, EMSTRER, QHYHRLPLS [En_HC] showed 3.1 nM (6 of 6 replicates; controls 1 of 18).
Variant KVSFQVWYSSRNKNSVA, DANTRES, QQYHRLPLS [GP_Gibbs] showed 3.3 nM (6 of 6 replicates; controls 2 of 18).
Variant KIGATLNTLMHTKNNVA, DLVTREQ, QQYHRLPLS [En_Gen] showed 3.6 nM (6 of 6 replicates; controls 1 of 18).
Variant DMTVQFNGASNIQNSVA, HGVEKID, QQYVRLPLA [En_Gibbs] showed 4.0 nM (6 of 6 replicates; controls 0 of 18).
Variant KLSGIMRVESKKSNSIA, EMTTRGE, QQYDRLPLS [En_Gen] showed 4.8 nM (6 of 6 replicates; controls 1 of 18).
Variant KMSPSVLYQDRNSNAVA, QASQRES, QQYHRLPLS [GP_Gibbs] showed 5.0 nM (6 of 6 replicates; controls 2 of 18).
Variant KITATMRFEQKESNNIA, EVTTRSK, QQYFRLPLS [En_Gen] showed 5.7 nM (6 of 6 replicates; controls 1 of 18).
Variant KLMNSMLYESRNTNSVA, HASRRES, QQYHRLPLS [GP_Gibbs] showed 5.8 nM (6 of 6 replicates; controls 2 of 18).
Variant KISQMTRVGSTHSNSIA, EEVTRAK, QQYHRLPLS [En_Gen] showed 5.9 nM (6 of 6 replicates; controls 1 of 18).
Variant TLYGLTNSMLKNKDNVA, EMSTREQ, QQYDRLPLA [En_Gen] showed 6.4 nM (6 of 6 replicates; controls 0 of 18).
Variant TIGQVMNWESRNGNSVA, QTSTREE, QDYDRLPLS [En_HC] showed 6.6 nM (6 of 6 replicates; controls 2 of 18).
Variant TIGQMFNGEQRNRNSVA, QASTRES, QSYDRLPLS [En_HC] showed 7.0 nM (6 of 6 replicates; controls 0 of 18).
Variant MISGTVMSESRLKNSVA, QTTTRES, QQYDRLPLS [En_HC] showed 7.8 nM (6 of 6 replicates; controls 0 of 18).
Variant MMTWGDDHTTGHQNAIA, HAHERAT, QQYALLPLS [En_Gibbs] showed 10 nM (6 of 6 replicates; controls 2 of 18).
Variant KLQMLELYESRWCNSVA, QASTREE, QQYHRLPLS [GP_Gibbs] showed 10 nM (6 of 6 replicates; controls 0 of 18).
Variant MVTQMAMTGMSNKRSVA, NASTREN, QQYHRLPLI [En_Gen] showed 11 nM (6 of 6 replicates; controls 0 of 18).
Variant KIQQTHVGNNKKMEAIA, QGDQRCH, QSYDRLPLS [En_Gibbs] showed 12 nM (6 of 6 replicates; controls 0 of 18).
Variant KLQWQQYGENQQEAAIA, NEQTVAQ, QQYSKLPLT [En_Gibbs] showed 12 nM (6 of 6 replicates; controls 2 of 18).
Variant HIQDDAGGLTEQFDSVA, STEERSY, QQYSRLPLS [En_Gibbs] showed 13 nM (6 of 6 replicates; controls 1 of 18).
Variant FMEMDFQGNSGNHNSIA, SEEVVTR, QHYARLPLS [En_Gibbs] showed 15 nM (1 of 6 replicates; controls 0 of 18).
Variant MLSQMWALGMKVKNSVA, QASLRFN, QQYDRLPLI [En_Gen] showed 16 nM (1 of 6 replicates; controls 1 of 18).
Variant NVGQEMLGESRNKNSVA, HQSTRED, QHYHRLPLS [En_HC] showed 26 nM (6 of 6 replicates; controls 3 of 18).
Variant HMQNESQGDSRQWNNVA, ETTVVET, QQYATLPLT [En_Gibbs] showed 48 nM (6 of 6 replicates; controls 0 of 18).
Variant TISGMTNQAMSKHNSVA, NVTMRPD, QQYHRLPLS [En_Gen] showed 90 nM (3 of 6 replicates; controls 0 of 18).
Variant MVTLQLRNGHELQNPIA, EASHKAA, QQYAHLPLG [En_Gibbs] showed 100 nM (3 of 6 replicates; controls 1 of 18).
Variant HITMGMYVSGRHHSSIA, QAETRAK, QQYDRLPLI [En_Gen] showed 140 nM (4 of 6 replicates; controls 0 of 18).
Variant KISMVMENQLKNRNSVA, ELVTRLN, QQYNRLPLS [En_Gen] showed 160 nM (6 of 6 replicates; controls 2 of 18).
Variant QLSMMEQHMGDRMHNVA, DTNVAKM, QDYFRLPLM [En_Gibbs] showed 420 nM (1 of 6 replicates; controls 0 of 18).
Variant KLDSQYQHGTNQKSAMA, SASVSTQ, QQYSRLPLS [En_Gibbs] showed no signal (0 of 6 replicates; controls 0 of 18).

Picked from the list: the 3 lowest averages where every replicate gave a value.

CDR-L1	CDR-L2	CDR-L3	group	Kd (apparent)	seen in	signal with controls
QLYAVQDMTSKNSNNVA	EQSTRNN	QQYHRLPLS	En_HC	700 pM	6/6	0/18
KLQGSELGESRNKNSVA	HADTRES	QQYHRLPLS	GP_Gibbs	760 pM	6/6	0/18
SVRHPFQGENGMRGSVA	NATIRDQ	QQYFRLPLF	En_Gibbs	820 pM	6/6	2/18

Values of this round are not directly comparable with the first-round values of the same sequences.
As a blank, each scFv also met three strains without target: over all light chain designs, 4% of these pairings were detected, typically at 430 nM and seldom below 38 nM. The control count says in how many pairings with the empty strains this scFv gave a signal.
In the paper, a design with two or fewer of six values counts as a poor binder.